Paper PMC7450122

B1: USP7 peptide D25 (1007-1024, …) [Homo sapiens (Human).] / GST-p65, purified recombinant [not stated] (parent)
chain 1: MDELFPLIFPAEPAQASGPYVEIIEQPKQRGMRFRYKCEGRSAGSIPGERSTDTTKTHPTIKINGYTGPGTVRISLVTKDPPHRPHPHELVGKDCRDGFYEAELCPDRCIHSFQNLGIQCVKKRDLEQAISQRIQTNNNPFQVPIEEQRGDYDLNAVRLCFQVTVRDPSGRPLRLPPVLSHPIFDNRAPNTAELKICRVNRNSGSCLGGDEIFLLCDKVQKEDIEVYFTGPGWEARGSFSQADVHRQVAIVFRTPPYADPSLQAPVRVSMQLRRPSDRELSEPMEFQYLPDTDDRHRIEEKRKRTYETFKSIMKKSPFSGPTDPRPPPRRIAVPSRSSASVPKPAPQPYPFTSSLSTINYDEFPTMVFPSGQISQASALAPAPPQVLPQAPAPAPAPAMVSALAQAPAPVPVLAPGPPQAVAPPAPKPTQAGEGTLSEALLQLQFDDEDLGALLGNSTDPAVFTDLASVDNSEFQQLLNQGIPVAPHTTEPMLMEYPEAITRLVTGAQRPPDPAPAPLGAPGLPNGLLSGDEDFSSIADMDFSALLSQISS
chain 2: FLLRIHQGEHFREVMKRI
B2: USP7 peptide E10 (1067-1084, …) [Homo sapiens (Human).] / GST-p65, purified recombinant [not stated] (parent)
chain 1: B1 chain 1
chain 2: PGNMSHPRPWLGLDHFNK
B3: USP7 peptide C17 (…; printed first residue 841, counted here as 845-862) [Homo sapiens (Human).] / GST-p65, purified recombinant [not stated] (parent)
chain 1: B1 chain 1
chain 2: YRDGPGNPLRHNYEGTLR
B4: USP7 peptide C15 (837-854, …) [Homo sapiens (Human).] / GST-p65, purified recombinant [not stated] (parent)
chain 1: B1 chain 1
chain 2: LQFFKSQGYRDGPGNPLR
B5: USP7 peptide 753-770 (Ubl2 domain), parent peptide of the alanine scan [not stated] / GST-p65, purified recombinant [not stated] (parent)
chain 1: B1 chain 1
chain 2: LDKALDELMDGDIIVFQK

Variants of: B1
Assay: alanine-scanning peptide array probed with GST-p65, anti-GST immunoblot

| percent of parent (% of parent peptide) | Variant |
| --- | --- |
| < 60 | chain 2 FLLRIHQGEHFRAVMKRI |
| < 60 | chain 2 FLLRIHQGEHFREVMKRA |
| < 60 | chain 2 FLLRIHQGEHAREVMKRI |
| < 60 | chain 2 FLLRIHQGEHFREVMKAI |
| < 60 | chain 2 FLLRIHQGEAFREVMKRI |

Variants of: B2
Assay: as above

| percent of parent (% of parent peptide) | Variant |
| --- | --- |
| < 60 | chain 2 PGNMSHPRPWLGLDHFNA |
| < 60 | chain 2 PGNMSHPRPWLGLDAFNK |
| < 60 | chain 2 PGNMSHPRPALGLDHFNK |
| < 60 | chain 2 PGNMSHPRPWLGLAHFNK |
| < 60 | chain 2 PGNMSHPAPWLGLDHFNK |
| < 60 | chain 2 PGNMSHPRAWLGLDHFNK |
| < 60 | chain 2 PGNMSHPRPWLGADHFNK |
| < 60 | chain 2 PGNMSHPRPWLGLDHANK |

Variants of: B3
Assay: as above

| percent of parent (% of parent peptide) | Variant |
| --- | --- |
| < 60 | chain 2 YRDGPGNPLAHNYEGTLR |
| < 60 | chain 2 YRDGPGNPLRHNYEATLR |
| < 60 | chain 2 YRDAPGNPLRHNYEGTLR |
| < 60 | chain 2 YRDGPGNPLRHNYEGTLA |
| < 60 | chain 2 YRDGPGNPLRHNYEGTAR |
| < 60 | chain 2 YRAGPGNPLRHNYEGTLR |
| < 60 | chain 2 YRDGPGAPLRHNYEGTLR |
| < 60 | chain 2 YRDGPANPLRHNYEGTLR |
| < 60 | chain 2 YRDGPGNPLRHNYAGTLR |
| < 60 | chain 2 YADGPGNPLRHNYEGTLR |
| < 60 | chain 2 YRDGPGNPARHNYEGTLR |
| < 60 | chain 2 YRDGPGNPLRHNAEGTLR |
| < 60 | chain 2 YRDGPGNPLRHAYEGTLR |

Variants of: B4
Assay: as above

| percent of parent (% of parent peptide) | Variant |
| --- | --- |
| < 60 | chain 2 LQFFKSQGYADGPGNPLR |
| < 60 | chain 2 LQFFKSQAYRDGPGNPLR |
| < 60 | chain 2 LQFFKSQGYRDGPGAPLR |
| < 60 | chain 2 LQFFKSQGYRDGPGNPLA |
| < 60 | chain 2 LQFFKSQGYRDGPGNPAR |
| < 60 | chain 2 LQFFKSQGYRDGAGNPLR |
| < 60 | chain 2 LQFFKSQGYRDGPANPLR |
| < 60 | chain 2 LQFFKSQGYRAGPGNPLR |

Variants of: B5
Assay: as above

| percent of parent (% of parent peptide) | Variant |
| --- | --- |
| < 60 | chain 2 LDKALDEAMDGDIIVFQK |
| < 60 | chain 2 LDKAADELMDGDIIVFQK |
| < 60 | chain 2 LDKALDALMDGDIIVFQK |
| < 60 | chain 2 LDKALAELMDGDIIVFQK |
